Measurements: patent US10836792B2, “Retro-inverso peptide inhibitors of cell migration, extracellular matrix and endothelial invasion by tumor cells” (ISTITUTO NAZIONALE TUMORI IRCCS “FONDAZIONE G. PASCALE”, priority 2016, dated 2020)

Columns and labels:
FPR1 [1] = molecular target: T1, FPR1 (Homo sapiens, UniProt P21462); experiment: Competition with FITC-fMLF binding to RBL-2H3/ETFR cells stably expressing FPR1; conditions: 100 nM pre-incubation 60 min at 4° C., then 10 nM FITC-fMLF
T1 construct: expressed in transfected cells; host or cells: rat basophilic leukaemia RBL-2H3/ETFR cells
T1 sequence (P21462 1-350): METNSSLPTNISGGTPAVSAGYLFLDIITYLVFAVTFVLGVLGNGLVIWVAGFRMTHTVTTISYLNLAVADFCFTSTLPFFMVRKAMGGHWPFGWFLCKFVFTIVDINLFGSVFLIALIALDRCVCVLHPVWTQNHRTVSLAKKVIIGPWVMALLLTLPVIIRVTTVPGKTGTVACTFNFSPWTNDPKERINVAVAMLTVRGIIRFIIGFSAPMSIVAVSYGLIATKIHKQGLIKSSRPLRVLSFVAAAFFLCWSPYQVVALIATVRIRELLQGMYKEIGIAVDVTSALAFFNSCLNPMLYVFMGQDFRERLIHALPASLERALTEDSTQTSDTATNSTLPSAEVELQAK
Protocol: (§1) FIG. 3 The retro-inverso peptide RI-3 competes with fMLF for binding to FPR1 (A) and inhibits fMLF-triggered FPR1 internalization (B) in rat basophilic leukaemia RBL-2H3/ETFR cells (Example 3).
(§2) To test whether new generated peptides affect agonist-induced FPR1 activation, rat basophilic leukaemia RBL-2H3/ETFR cells stably expressing FPR1 [24], were pre-incubated with diluents, (None), 100 nM fMLF, or 100 nM RI-3 for 60 min at 4° C. (to avoid FPR1 internalization), and then exposed to 10 nM N-Formyl-Nle-Leu-Phe-Nle-Tyr-Lys-fluorescein (FITC-fMLF) for 60 min at 4° C. Cell-associated fluorescence was measured using a fluorescence plate reader. The results are depicted in FIG. 3. Data, expressed as a percentage of the fluorescence associated to cells exposed to FITC-fMLF alone (None=100%), represent mean±SD from an experiment performed in triplicate. *Statistical significance was calculated against None with p<0.001. […] To evaluate the effect of RI-3 on agonist-dependent FPR1 internalization, binding experiments were performed at 37° C. and cells were visualized using a Zeiss 510 Meta LSM microscope. Original magnifications: 630×. Scale bar: 10 μm. Upon exposure of RBL-2H3/ETFR cells to FITC-fMLF (None), FPR1 appeared mainly internalized as indicated by green fluorescent intra-cytoplasmic spots (arrow) which were prevented by cell pre-incubation with an excess fMLF, as expected. […]

FPR1 [2] = molecular target: T1, FPR1; experiment: Agonist-dependent FPR1 internalization in RBL-2H3/ETFR cells (microscopy); assay type: cell-based; conditions: binding experiments at 37° C., FITC-fMLF
Protocol: as §1, §2

inhibition of binding of fluorescent agonist (FITC-fMLF) to RBL-2H3/ETFR cells (FPR1 [1]): strongly reduced
agonist-dependent FPR1 internalization (FPR1 [2]): prevented
Substance: N-formyl-methionyl-leucyl-phenylalanine peptide [fMLF, reference compound]
